Measurements reported in patent US20230346272A1 (priority 2021, published 2023).

Test: DPV with microneedle sensor array, buprenorphine and norbuprenorphine (FIGS. 11A-11C)
Details: applied voltages from -0.2 to 1.0V

## CO[C@]12CC[C@@]3(C[C@@H]1[C@](C)(O)C(C)(C)C)[C@H]1Cc4ccc(O)c5c4[C@@]3(CCN1)[C@H]2O5
1 μg/ml buprenorphine and 1 μg/ml norbuprenorphine together
  voltage of current peak (DPV), both substances together: 0.29 V
1 μg/ml, single substance, against unmedicated baseline
  voltage of measured current peak (DPV), substance alone: about 0.27 V
